Only a part of the results on these compounds is given; other tests are left out.
Key:
insulin = assay: Medication compatibility with insulin, considered in the risk evaluation; settings: no compatibility data available with insulin
[1] = molecular target: rhIGF-1/rhIGFBP-3 drug product (Homo sapiens, UniProt P05019+P17936, DEL119-195); assay: Small-molecule chemical compatibility: small-molecule content post mixing by RP-HPLC-UV or ion chromatography; assay type: physicochemical; settings: post mixing with rhIGF-1/rhIGFBP-3 drug product, last specified time point(s)

Chains of the proteins cited; added tags and fusions are not shown. A line that says so, or that is headed by a name, gives the form on record, which may keep a tag or linker. Residues count along the entry.
UniProt P05019, 49-118 limits assumed: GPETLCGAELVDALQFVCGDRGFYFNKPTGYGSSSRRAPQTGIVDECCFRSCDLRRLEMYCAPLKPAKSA
UniProt P17936, with tags, fused parts or gaps DEL119-195 limits assumed: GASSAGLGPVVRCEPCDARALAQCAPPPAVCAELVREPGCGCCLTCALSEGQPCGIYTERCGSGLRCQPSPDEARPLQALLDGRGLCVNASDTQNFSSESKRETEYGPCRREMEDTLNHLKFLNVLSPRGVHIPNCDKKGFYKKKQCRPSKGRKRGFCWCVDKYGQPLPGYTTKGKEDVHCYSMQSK

CCC(=O)N(c1ccccc1)C1CCN(CCc2ccccc2)CC1
expected reaction on the basis of theoretical evaluation and the solution pH (insulin): a reaction is not expected
Chemical compatibility for small-molecule content (RP-HPLC) [1]: Yes (Chemical incompatibility was considered to be a loss of the small-molecule content of ~10% or more over the defined testing period)
